For this assay, the target named is High affinity choline transporter 1 (Homo sapiens) (UniProt Q9GZV3). Put plainly: human choline transporter blockers, potency – cell-based, 10-point CRC, membrane potential dye, dose response (AID 588401). The conditions noted are these: HEK293-CHT, choline-induced depolarization, cells express LV-AA mutant CHT.

Sequences of proteins named here, by UniProt entry; tags and fusion partners are left off. A change or cut given only in a name is not applied to a line headed by its entry.
UniProt Q9GZV3: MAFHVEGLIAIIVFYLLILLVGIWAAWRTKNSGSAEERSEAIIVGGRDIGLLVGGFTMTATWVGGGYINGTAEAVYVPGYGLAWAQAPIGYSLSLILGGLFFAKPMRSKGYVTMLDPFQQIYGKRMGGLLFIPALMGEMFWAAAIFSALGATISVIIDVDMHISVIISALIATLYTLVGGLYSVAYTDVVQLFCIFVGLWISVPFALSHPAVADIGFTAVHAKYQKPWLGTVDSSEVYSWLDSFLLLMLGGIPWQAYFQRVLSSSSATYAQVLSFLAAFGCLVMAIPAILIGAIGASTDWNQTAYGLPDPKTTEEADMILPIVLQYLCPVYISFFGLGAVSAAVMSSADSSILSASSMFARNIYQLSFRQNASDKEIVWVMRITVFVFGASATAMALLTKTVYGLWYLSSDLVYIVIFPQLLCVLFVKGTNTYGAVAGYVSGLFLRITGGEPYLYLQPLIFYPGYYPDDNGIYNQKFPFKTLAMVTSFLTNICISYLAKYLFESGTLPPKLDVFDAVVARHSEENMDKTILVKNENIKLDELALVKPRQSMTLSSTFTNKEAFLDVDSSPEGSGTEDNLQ

Structures are written as SMILES.

In the case of `CCc1nc2c(n1)c1c(non1O)c1c2no[n+]1[O-]`, the IC50 is 1.78 µM.

As usually defined, the IC50 is the concentration at which inhibition is half-maximal.
